Reference: paper PMC5495814, “The impact of the butterfly effect on human parainfluenza virus haemagglutinin-neuraminidase inhibitor design” (Scientific Reports, 2017)
pIC50: −log10 of the molar value. Where “and” joins values, the source holds several entries; their conditions need not be identical. Equal values may be shown once.

Sequences of proteins named here, by UniProt entry; tags and fusion partners are left off. A change or cut given only in a name is not applied to a line headed by its entry.
UniProt P08492: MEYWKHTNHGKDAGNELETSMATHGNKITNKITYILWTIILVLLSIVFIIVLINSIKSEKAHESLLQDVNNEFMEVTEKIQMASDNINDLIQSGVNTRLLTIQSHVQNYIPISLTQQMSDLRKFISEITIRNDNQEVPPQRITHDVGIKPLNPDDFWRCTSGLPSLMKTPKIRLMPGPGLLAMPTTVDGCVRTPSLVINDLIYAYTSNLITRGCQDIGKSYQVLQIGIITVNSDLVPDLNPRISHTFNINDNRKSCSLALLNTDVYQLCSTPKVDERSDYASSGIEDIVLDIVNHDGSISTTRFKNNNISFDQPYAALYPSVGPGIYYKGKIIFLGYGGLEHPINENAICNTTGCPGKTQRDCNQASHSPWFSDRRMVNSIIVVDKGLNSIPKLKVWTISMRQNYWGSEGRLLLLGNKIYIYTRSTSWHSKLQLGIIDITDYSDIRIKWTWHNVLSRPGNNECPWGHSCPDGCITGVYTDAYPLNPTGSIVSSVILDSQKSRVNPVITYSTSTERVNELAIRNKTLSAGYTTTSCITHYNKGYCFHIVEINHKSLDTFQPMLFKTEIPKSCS

Columns and labels:
[1] = molecular target: hPIV-3 HN haemagglutinin function (Human parainfluenza 3 virus, UniProt P08492); experiment: cell-based; design: species or system human parainfluenza virus type 3 (hPIV-3); details: HI IC50, human red blood cells, 4 °C, 90 min
Method: The HN inhibitors were assessed in haemagglutination inhibition assays using human red blood cells (RBC) as previously described[10] with minor modifications. The lowest final concentration of hPIV-3 that leads to a complete agglutination of human-RBC at 4 °C is considered as 1 HAU. 4 haemagglutination units (HAU) of hPIV-3 (final 1 HAU per well) were pre-mixed with inhibitors of each tested concentration (4X dilution in PBS) on ice. Next, an equivalent volume of ice-cold 1% human-RBC in PBS was added to each well of the inhibitor/virus pre-mixture and the plate was then incubated for 90 min at 4 °C before determining the extent of haemagglutination inhibition.

[2] = molecular target: hPIV-3 HN neuraminidase function (Human parainfluenza 3 virus, UniProt P08492); experiment: biochemical; design: species or system human parainfluenza virus type 3 (hPIV-3, strain C-243); details: NI IC50, purified hPIV-3, MUN substrate, pH 4.6; means of 3 independent experiments

CC(C)C(=O)N[C@H]1[C@H]([C@H](O)[C@H](O)CO)OC(C(=O)O)=C[C@@H]1n1cc(-c2ccccc2)nn1 [Inhibitor 5]
pIC50 [1]: 6.20 and 6.22 | pIC50 [2]: 5.85 and 5.84
